Only a part is listed here, and it is no random draw. Records with an inconclusive call do not appear. Calls of active or inactive are those of the source. Calls come from the whole dose curve; as a rule, active = well fitted cell-killing curve with a large enough effect; inconclusive = small, poorly fitted or top-dose-only effect, or effect the other way; inactive = flat fitted curve, though single readings scatter.
Experiment: qHTS assay for MDR1-selective chemotherapeutics: Primary screen using the parental adenocarcinoma cell KB-3-1; note: nearly all actives have a fitted effect of over 60% in size
Settings: KB-3-1 viability, CellTiter-Glo ATP luminescence, 72 h; at 46.1 µM (top of the series)
Procedure, shortened: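 KB-3-1 cells, DMEM (no phenol red) + 10% FBS; compound by pin transfer, 72 h, 37 °C. Readout: CellTiter-Glo luminescence after 10 min. Data normalized, curve-fitted.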
% is set by controls: 0 for no effect and ±100 for the full control effect.

SMILES	activity change, negative = cytotoxic
CP(=O)(OC12CC3CC(CC(C3)C1)C2)OC12CC3CC(CC(C3)C1)C2	inactive: -21.1%
CCOC(=O)c1ccc(NP(C)(=O)Oc2ccc(Cl)cc2)cc1 (centres undefined)	inactive: 7.97%
Nc1ccc2c(ccc3cccnc32)n1.O=[N+]([O-])c1cc([N+](=O)[O-])c(O)c([N+](=O)[O-])c1	inactive: 4.01%
CCc1ccc(OP(C)(=O)Nc2cccnc2)cc1 (centres undefined)	inactive: 26.1%
CP(=O)(Oc1ccccc1)N1CCOC1=O (centres undefined)	inactive: -0.267%
O=C(OCCCN1CCCC1)C(O)(c1ccccc1)C1CCCCC1 (centres undefined)	inactive: -0.462%
COc1ccccc1OP(C)(=O)Nc1c(C)n(C)n(-c2ccccc2)c1=O (centres undefined)	inactive: 8.36%
COc1ccc(OP(C)(=O)Nc2ccc(Br)cc2)cc1 (centres undefined)	inactive: 19.2%
CCN(CC)CC(O)COC(=O)C(O)(c1ccccc1)C1CCCCC1 (centres undefined)	inactive: -2.7%
CP(=O)(Nc1ccc(Cl)cc1)Oc1ccc(F)cc1 (centres undefined)	inactive: -1.56%
CC(C)(C)c1ccc(OP(C)(=O)O)cc1	inactive: 4.6%
COc1ccccc1OP(C)(=O)Nc1ccccc1Br (centres undefined)	inactive: -12%
CN(C)CCOC(=O)C(O)(c1ccccc1)C1CCCC1 (centres undefined)	inactive: 0.539%
COc1ccc(OP(C)(=O)Nc2ccccn2)cc1 (centres undefined)	inactive: 1.32%
COc1ccccc1OP(C)(=O)Nc1ccc(Br)cc1 (centres undefined)	inactive: 3.23%
CCc1ccc(OP(C)(=O)O)cc1	inactive: -2.92%
COc1ccccc1OP(C)(=O)Nc1ccc(C)cc1C (centres undefined)	inactive: 7.39%
CP(=O)(Nc1ccccn1)Oc1ccccc1 (centres undefined)	inactive: -3.81%
Cc1c(NP(C)(=O)Oc2ccc(C(C)C)cc2)c(=O)n(-c2ccccc2)n1C (centres undefined)	inactive: 9.82%
COc1ccc(OP(C)(=O)Nc2ccccc2Br)cc1 (centres undefined)	inactive: 3.53%
COc1ccccc1OP(C)(=O)Nc1ccc(C)c(C)c1 (centres undefined)	inactive: 5.11%
Cc1cc(C)cc(OP(C)(=O)Nc2cccc(C(F)(F)F)c2)c1 (centres undefined)	inactive: -9.52%
CP(=O)(OCCOc1ccccc1)OCCOc1ccccc1	inactive: -0.468%
CP(=O)(Nc1ccc(Cl)cc1Cl)Oc1ccccc1 (centres undefined)	inactive: 3.16%
